We go through one sequence from patent US20030224390A1, “Method of identifying conformation-sensitive binding peptides and uses thereof” (Karo Bio AB, priority 2000, published 2003).

Chains of the proteins cited; added tags and fusions are not shown.
UniProt P10275, whole entry, species assumed: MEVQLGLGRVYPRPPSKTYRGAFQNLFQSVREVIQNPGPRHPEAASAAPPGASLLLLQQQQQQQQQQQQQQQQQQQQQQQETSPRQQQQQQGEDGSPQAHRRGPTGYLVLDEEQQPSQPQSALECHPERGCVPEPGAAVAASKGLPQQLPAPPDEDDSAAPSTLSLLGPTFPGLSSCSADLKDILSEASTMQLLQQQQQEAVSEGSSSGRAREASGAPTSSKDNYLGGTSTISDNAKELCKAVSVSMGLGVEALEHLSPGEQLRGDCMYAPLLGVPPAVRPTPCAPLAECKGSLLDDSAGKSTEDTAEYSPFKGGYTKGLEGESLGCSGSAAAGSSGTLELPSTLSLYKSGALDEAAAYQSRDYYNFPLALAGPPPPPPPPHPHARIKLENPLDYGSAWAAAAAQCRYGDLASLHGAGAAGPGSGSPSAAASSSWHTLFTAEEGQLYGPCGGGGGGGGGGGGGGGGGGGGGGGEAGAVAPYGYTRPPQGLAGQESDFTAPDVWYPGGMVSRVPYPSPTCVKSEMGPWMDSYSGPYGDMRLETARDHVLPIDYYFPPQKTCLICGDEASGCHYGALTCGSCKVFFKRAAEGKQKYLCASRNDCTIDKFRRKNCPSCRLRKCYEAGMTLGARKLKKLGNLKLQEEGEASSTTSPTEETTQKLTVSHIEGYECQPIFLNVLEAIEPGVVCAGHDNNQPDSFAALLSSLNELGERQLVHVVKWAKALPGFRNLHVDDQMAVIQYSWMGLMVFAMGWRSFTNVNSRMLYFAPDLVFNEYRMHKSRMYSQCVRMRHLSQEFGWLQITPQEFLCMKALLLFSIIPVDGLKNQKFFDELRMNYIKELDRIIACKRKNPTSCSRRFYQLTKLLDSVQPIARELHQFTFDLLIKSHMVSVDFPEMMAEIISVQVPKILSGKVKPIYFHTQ

The target in this series is androgen receptor (Homo sapiens, UniProt P10275). Briefly: Yeast two-hybrid screening of unbiased X15 peptide library, ligand induced β-galactosidase activity (FIG. 3, Table 503). Type of series: cell-based. Details: expressed in transfected cells; host or cells: Saccharomyces cerevisiae PJ69-4α. To be noted: untitled table before Table 503; values match DHT / No Lig of Table 503.

In the case of EFRFPFHEMVREWESMGLERVRYAEP [M4D1], the Fold induction is listed as more than 2.
